# Data: ChEMBL document CHEMBL5257017, “Small Molecule CXCR3 Antagonists” (J Med Chem, 2016)
# Protein sequences, listed by entry. Tags and fused reporters are not part of them.
# UniProt P25024, whole entry: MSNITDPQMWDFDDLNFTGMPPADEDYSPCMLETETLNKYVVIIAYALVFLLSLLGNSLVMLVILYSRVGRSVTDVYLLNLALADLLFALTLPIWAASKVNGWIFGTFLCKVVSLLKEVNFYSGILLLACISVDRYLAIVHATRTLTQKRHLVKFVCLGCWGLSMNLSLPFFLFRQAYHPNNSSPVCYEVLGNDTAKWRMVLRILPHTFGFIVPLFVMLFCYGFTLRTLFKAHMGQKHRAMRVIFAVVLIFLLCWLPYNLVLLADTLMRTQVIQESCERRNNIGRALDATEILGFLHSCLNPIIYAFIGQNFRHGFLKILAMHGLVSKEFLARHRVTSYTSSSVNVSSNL
# Target: C-X-C chemokine receptor type 1 (Homo sapiens, UniProt P25024)
# Assay: Antagonist activity at CXCR1 (unknown origin)
structure (smiles),measurement,value
Cc1ccc(C(Nc2c(Nc3cccc(C(=O)N(C)C)c3O)c(=O)c2=O)C2(C)CCCO2)o1 (stereo unspecified),IC50,251 nM
